Test results as given in US12539304B2, “Combination of an anaplastic lymphoma kinase inhibitor and a cyclin dependent kinase inhibitor” (Pfizer Inc., priority 2020, dated 2026).

Tested on: MGH979-6.7R8 (AlecR, G1202R) cells
Test: CyQUANT cell proliferation assay, MGH979-6.7R8
Format: cell-based, human
Conditions: FIG. 7C
Method: MGH048-4F (Crizo/Alec/LorlaR), MGH902-1C (Crizo/CeriR) and MGH979-6.7R8 (AlecR, G1202R) were acquired from MGH through a research contract. Specimens from patients relapsed on various lines ALK inhibitor therapies were utilized to derive the cell lines. […] Cell viability and IC50 were measured in standard CyQUANT cell proliferation assays.

Row | Structure (SMILES) | Sensitivity to single agent
1 | CCc1cc2c(cc1N1CCC(N3CCOCC3)CC1)C(C)(C)c1[nH]c3cc(C#N)ccc3c1C2=O [alectinib] | resistant
2 | C[C@@H](Oc1cc(-c2cnn(C3CCNCC3)c2)cnc1N)c1c(Cl)ccc(F)c1Cl [crizotinib] | resistant
